Reference: patent publication US11395824B2, “5-HT2C receptor agonists and compositions and methods of use” (Arena Pharmaceuticals, Inc., priority 2015, dated 2022)

The chains behind the UniProt entries cited, without tags or fusion partners. Residues count along the entry.
UniProt P41595, whole entry: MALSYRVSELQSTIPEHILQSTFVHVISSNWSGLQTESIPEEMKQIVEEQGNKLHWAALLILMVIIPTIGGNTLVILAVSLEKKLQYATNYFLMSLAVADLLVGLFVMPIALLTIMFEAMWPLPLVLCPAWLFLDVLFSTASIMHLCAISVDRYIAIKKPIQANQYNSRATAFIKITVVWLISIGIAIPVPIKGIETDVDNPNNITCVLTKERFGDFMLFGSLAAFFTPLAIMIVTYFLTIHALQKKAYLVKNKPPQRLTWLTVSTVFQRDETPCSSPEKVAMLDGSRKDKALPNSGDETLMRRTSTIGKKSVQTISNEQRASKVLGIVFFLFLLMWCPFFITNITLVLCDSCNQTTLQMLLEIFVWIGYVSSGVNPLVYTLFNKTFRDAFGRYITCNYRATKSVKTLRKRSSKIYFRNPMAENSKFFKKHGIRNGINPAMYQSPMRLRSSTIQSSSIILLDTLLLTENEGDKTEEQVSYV
UniProt P28223, whole entry: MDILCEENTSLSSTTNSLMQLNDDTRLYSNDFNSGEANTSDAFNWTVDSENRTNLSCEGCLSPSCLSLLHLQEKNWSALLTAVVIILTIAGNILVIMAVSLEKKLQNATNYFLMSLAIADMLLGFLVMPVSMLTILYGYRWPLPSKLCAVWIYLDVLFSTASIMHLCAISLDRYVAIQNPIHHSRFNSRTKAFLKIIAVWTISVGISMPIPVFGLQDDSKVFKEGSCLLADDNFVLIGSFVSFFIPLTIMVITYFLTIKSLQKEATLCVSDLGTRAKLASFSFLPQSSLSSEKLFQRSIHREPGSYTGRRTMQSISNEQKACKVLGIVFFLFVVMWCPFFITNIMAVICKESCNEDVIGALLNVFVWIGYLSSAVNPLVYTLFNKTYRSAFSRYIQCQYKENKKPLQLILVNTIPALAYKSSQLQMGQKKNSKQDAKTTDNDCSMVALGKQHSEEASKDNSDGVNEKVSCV
UniProt P28335, 33-458 limits assumed: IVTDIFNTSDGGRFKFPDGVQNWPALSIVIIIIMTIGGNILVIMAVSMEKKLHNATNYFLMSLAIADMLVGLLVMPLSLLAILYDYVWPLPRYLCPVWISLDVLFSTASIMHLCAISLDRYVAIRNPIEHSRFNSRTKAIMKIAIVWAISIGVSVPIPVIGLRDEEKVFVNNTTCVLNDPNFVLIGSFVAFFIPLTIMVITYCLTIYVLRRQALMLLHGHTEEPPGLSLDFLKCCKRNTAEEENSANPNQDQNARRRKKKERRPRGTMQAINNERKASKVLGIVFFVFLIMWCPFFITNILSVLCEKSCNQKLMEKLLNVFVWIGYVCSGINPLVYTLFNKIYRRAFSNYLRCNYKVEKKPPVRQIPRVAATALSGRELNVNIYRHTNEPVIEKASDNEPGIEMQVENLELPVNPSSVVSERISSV

Assays:
[1] = biological target: T1, 5-HT2B receptor (Homo sapiens, UniProt P41595); assay: IP accumulation assay; conditions: read-out: IP Accumulation EC50 (nM) 2B, [3H]inositol phosphates
[2] = biological target: T2, 5-HT2A receptor (Homo sapiens, UniProt P28223); assay: IP accumulation assay; conditions: read-out: IP Accumulation EC50 (nM) 2A, [3H]inositol phosphates
[3] = biological target: T3, 5-HT2C receptor (Homo sapiens, UniProt P28335); assay: IP accumulation assay; conditions: read-out: IP Accumulation EC50 (nM) 2C; HEK293 cells expressing recombinant 5-HT2C receptors, [3H]inositol phosphates, 2 h at 37° C.
[4] = biological target: T1, 5-HT2B receptor; assay: Radioligand binding assay with [125I]DOI; conditions: read-out: DOI Binding Ki (nM) 2B, competition with [125I]DOI
[5] = biological target: T2, 5-HT2A receptor; assay: Radioligand binding assay with [125I]DOI; conditions: read-out: DOI Binding Ki (nM) 2A, competition with [125I]DOI
[6] = biological target: T3, 5-HT2C receptor; assay: Radioligand binding assay with [125I]DOI; conditions: read-out: DOI Binding Ki (nM) 2C; competition with [125I]DOI, membranes of HEK293 cells expressing recombinant 5-HT2C receptors
[7] = Effect of compounds on food intake in the male Sprague Dawley rat; conditions: 1 hour following administration, relative to placebo, male Sprague Dawley rats

For `c1cc2c3c(c1)C1(CCC3CCNC2)CC1` (single isomer, unassigned), the EC50 [1] was > 100000 nM, the EC50 [2] was > 100000 nM and the EC50 [3] was 4860 nM.
For `CC1(C)CCC2CCNCc3cccc1c32` (single isomer, unassigned), the EC50 [1] was > 100000 nM, the EC50 [2] was > 100000 nM and the EC50 [3] was > 100000 nM.
With `c1cc2c3c(c1)C1(CC1)C1(CC1)CC3CCNC2` (single isomer, unassigned) the Ki [4] was 647 nM, the Ki [5] was 427 nM and the Ki [6] was 29.6 nM.
`Fc1ccc2c3c1C1(CC1)C1(CC1)CC3CCNC2` (single isomer, unassigned) gave an EC50 [1] of 1600 nM, an EC50 [2] of 12400 nM and an EC50 [3] of 7.6 nM. It also gave a Ki [4] of 53.3 nM, a Ki [5] of 20.9 nM and a Ki [6] of 0.708 nM. The cumulative food intake ([7]; 2 mg/kg PO) was “significantly decreased”, the cumulative food intake ([7]; 5 mg/kg PO) was “significantly decreased” and the cumulative food intake ([7]; 10 mg/kg PO) was “significantly decreased”.
